Data reported in patent publication US5434256A, “Diamine platinum complexes as antitumor agents” (priority 1994, dated 1995).

Test: Renal and hematological toxicity, single i.p. dose (Table 8)

NC1CCC(N)CC1.O.O=C([O-])C1(C(=O)[O-])CCC1.[Pt+2] [Compound 1, Cis-1,4-diaminocyclohexane-1,1-cyclobutanedicarboxylato-platinum(II).H2 O]
nephrotoxicity (in words) (BUN): did not show any indication of nephrotoxicity
myelotoxicity / myelosuppression (in words) (leucopenia): did not show any indication of nephrotoxicity or myelotoxicity
